Laboratory results taken from patent US10604526B2, “Chemokine receptor modulators and uses thereof” (RAPT THERAPEUTICS, INC., priority 2016, dated 2020).
pIC50: −log10 of the molar value.

Protein sequences, listed by entry. Tags and fused reporters are not part of them.
UniProt P51679, whole entry: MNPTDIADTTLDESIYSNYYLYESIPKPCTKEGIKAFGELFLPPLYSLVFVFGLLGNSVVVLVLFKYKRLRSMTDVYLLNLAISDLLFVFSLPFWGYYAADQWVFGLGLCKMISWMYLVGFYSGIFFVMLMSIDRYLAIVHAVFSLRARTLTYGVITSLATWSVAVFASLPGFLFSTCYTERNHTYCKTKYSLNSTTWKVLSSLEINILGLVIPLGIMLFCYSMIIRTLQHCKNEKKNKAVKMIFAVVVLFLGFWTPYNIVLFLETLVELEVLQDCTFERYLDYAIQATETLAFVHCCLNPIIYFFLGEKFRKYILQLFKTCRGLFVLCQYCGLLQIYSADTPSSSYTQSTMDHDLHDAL

Target: hCCR4 (Homo sapiens, UniProt P51679)
Assay: Calcium flux assay
Details: read-out: Potency (IC50); Chem5-hCCR4 cells, CCL22 at EC80 of 1.5 nM, FLIPR Calcium 6 dye
Experimental: Calcium Flux Assay. Compounds were evaluated in a calcium flux assay substantially performed as follows. Chem5-hCCR4 cells (EMD Millipore, Hayward, Calif.; HTS009C) were cultured under standard conditions and frozen in aliquots of 10×10^6 cells/mL. The day prior to compound testing, a vial was rapidly thawed and pipetted into 20 mL media (DMEM+10% FBS+1% Pen-Strep+1% L-glutamine). Cells were harvested by centrifugation and re-suspended in fresh culture medium. 25 μL of cell suspension was seeded into 384-well plates (Corning, Tewksbury, Mass.; CellBind with black wall/clear bottom). The plates were centrifuged at 300 g for 10 seconds and incubated overnight at 37° C. and 5% CO2. The day of compound testing, media was removed from the plates and 25 μL serum free media was added to each well. […]
Assay plates and working solution of CCL22 were transferred to the FlexStation plate reader (Molecular Devices) at 37° C. for 5 min of equilibration. Fluorescence recordings at 485 excitation/525 emission were performed at 2.5 second intervals. At t=16 seconds, 12.5 μL of CCL22 solution was added to each well and reads continued for 30 seconds at 2.5 second intervals. The minimum fluorescence (Fmin) was calculated by averaging the reads prior to ligand addition and the change in fluorescence (ΔF) was calculated by subtracting the Fmin from the average of the reads following ligand addition. […]

Cc1nn([C@H](C)c2ccc(Cl)cc2Cl)c2nc(N3CC([C@@H]4CCCN(CCCC(=O)O)C4)C3)ncc12
pIC50: < 6.30
